This passage reports inhibition results from PubChem BioAssay AID488899 (Broad Institute, 2010).

The list shows a part of the results, in another mix than the full data. Active and inactive are the calls of the source.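 How the source made its calls: active means mean inhibition across replicates of 60% or more, whatever share of single replicates reaches that level; inconclusive means some that reach 60%, reason not given; inactive means mean inhibition across replicates below 60%.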

A short description of this assay: MITF transcriptional activity suppression – cell-based, SK-MEL-5, single point, luciferase, primary screen (AID 488899). To be noted: SK-MEL-5 TRPM1 promoter luciferase, 24 h; at 12.5 µM; stronger effect = higher value.
For `COc1cc(I)ccc1[As](=O)(O)O`, the inhibition is inactive: -8.32%.

As to `O=P1(N(CCCl)CCCl)OCCCN1CCCl` (configuration not stated), the inhibition was inactive: 3.29%.

Consider `O=P1(N(CCCl)CCCl)Nc2ccccc2N1`, for which the inhibition is inactive: 1.07%.

On to `CCOC(=O)c1ccc(NC(=O)C(C)(CCl)SC)cc1` (configuration not stated), for which the inhibition is inactive: -40.6%.

On to `O=C(OC1CN2CCC1CC2)c1cccc([N+](=O)[O-])c1` (configuration not stated), for which the inhibition was inactive: 7.98%.

Consider `CCC(C)N(CC(C)C)C(=S)SC(NC(C)=O)C(Cl)(Cl)Cl` (configuration not stated), for which the inhibition was inactive: 26.9%.

Regarding `COP1(=S)c2c(C)nn(CCC#N)c2N=C(c2ccc(F)cc2)N1C` (configuration not stated), the inhibition is inactive: 0.336%.

Consider `O=C(COc1ccccc1)OC1CN2CCC1CC2` (configuration not stated), for which the inhibition is inactive: 5.61%.

Consider `O=C(Nc1ccncc1[N+](=O)[O-])c1ccc([N+](=O)[O-])cc1[N+](=O)[O-]`, for which the inhibition was inactive: 18.8%.

As to `CCOC(=O)Nc1cccc([As](=O)(O)O)c1`, the inhibition is inactive: 0.996%.

In the case of `O=[N+]([O-])c1ccc(Nc2ccc(Oc3ccc([N+](=O)[O-])cc3[N+](=O)[O-])cc2)c([N+](=O)[O-])c1`, the inhibition was inactive: -4.18%.

Regarding `O=P(Nc1ccccn1)(c1cccc2ccccc12)c1cccc2ccccc12`, the inhibition was inactive: -7.69%.

As for `Cc1cc(SC(NC=O)C(Cl)(Cl)Cl)ncn1` (configuration not stated), the inhibition was inactive: -5.16%.

Turning to `CC1CCNP(=O)(N(CCCl)CCCl)O1` (configuration not stated), the inhibition is inactive: 7.74%.

For `CCOC(=O)Nc1ccc([As](=O)(O)O)c(O)c1`, the inhibition was inactive: 2.91%.

Take `CCCCOc1ccc(C(=O)NCC2(N3CCCCC3)CCCCC2)cc1OC`: the inhibition was inactive: -10.8%.

Take `Cc1cc(SC(NC(=O)c2ccccc2)C(Cl)(Cl)Cl)nc(C(C)C)n1` (configuration not stated): the inhibition was inactive: 6.18%.

For `CC(C)(C)C(=O)NC(Sc1ccncn1)C(Cl)(Cl)Cl` (configuration not stated), the inhibition was inactive: -6.68%.

`O=[N+]([O-])c1ncn(CCn2ncnc2[N+](=O)[O-])n1`: the inhibition is inactive: -1.7%.

With `O=[N+]([O-])c1cccc(NC2=NCC(CBr)S2)c1` (configuration not stated), the inhibition was inactive: -2.69%.

Turning to `COC(=O)C1(C)COP(=O)(Nc2ccccc2)OC1` (configuration not stated), the inhibition was inactive: 0.229%.

Turning to `O=C(O)CNc1ccc([As](=O)(O)O)cc1`, the inhibition was inactive: -7.17%.

Consider `O=P1(N(CCCl)CCCl)OCCCS1` (configuration not stated), for which the inhibition was inactive: -4.01%.

As to `O=C(Nc1cc([As](=O)(O)O)ccc1O)c1ccccc1`, the inhibition is inactive: 4.87%.

As for `Nc1ccc([As](=O)(O)c2ccc(N)cc2)cc1`, the inhibition is inactive: 10.1%.

With `C[N+]1=C2C=CC=CC=C2SC12C([N+](=O)[O-])=CC([N+](=O)[O-])=C[C-]2[N+](=O)[O-]` (configuration not stated), the inhibition was active: 67%.

For `CCN(/C(=N/P(=O)(N1CCOCC1)N1CCOCC1)N1CCOCC1)c1ccc(OC)cc1`, the inhibition is inactive: -4.43%.

As for `CC(C)=N/N=C(\N)N[N+](=O)[O-]`, the inhibition is inactive: 3%.

As to `CN(C)C(=O)OCCc1n(C)cc[n+]1C`, the inhibition is inactive: -11.9%.

As for `CC1CCN(C(=O)Oc2c(Cl)cc(Cl)c3cccnc23)CC1`, the inhibition was inactive: -4.64%.

Turning to `COc1ccc(C2=NCC(CBr)S2)cc1` (configuration not stated), the inhibition was inactive: -13.4%.

For `O=[N+]([O-])c1cccc2n[nH]nc12`, the inhibition was inactive: -2.69%.

Consider `CC(=O)N1C2C3N(C(C)=O)C1C1N(C(C)=O)C(C(N1C(C)=O)N3C(C)=O)N2C(C)=O`, for which the inhibition is inactive: 5.14%.

For the compound `Cc1ccc(NP(=O)(Oc2ccccc2)Oc2ccccc2)nc1`, the inhibition is inactive: -1.95%.

As to `CCc1nc2c(n1)c1c(non1O)c1c2no[n+]1[O-]`, the inhibition is active: 62.6%.

Consider `O=[N+]([O-])c1cc([N+](=O)[O-])c(CCNc2ccccc2)c([N+](=O)[O-])c1`, for which the inhibition is inactive: 36.3%.

In the case of `CC(C)CC(=O)NC(Sc1ccc(Cl)cc1)C(Cl)(Cl)Cl` (configuration not stated), the inhibition is inactive: 2.1%.

In the case of `Nc1cc(N)c2nonc2c1[N+](=O)[O-]`, the inhibition is inactive: 9.85%.

`Oc1ccccc1CNc1ccccn1`: the inhibition is inactive: -13.6%.

As to `O=C(NC(Sc1ccncn1)C(Cl)(Cl)Cl)c1ccccc1` (configuration not stated), the inhibition was inactive: 8.87%.

Take `NC(=O)c1cc([N+](=O)[O-])cc([N+](=O)[O-])c1N`: the inhibition was inactive: 5.96%.

For `CN(C(=O)Cc1ccc(Cl)c(Cl)c1)[C@H]1CCCC[C@H]1N1CCCC1`, the inhibition is inactive: -11.9%.

Turning to `Cc1ccc(N/C(=N/P(=O)(N2CCOCC2)N2CCOCC2)N2CCOCC2)cc1`, the inhibition was inactive: 4.52%.

For the compound `COc1ccccc1OP(=O)(Nc1ccc(C)cn1)Oc1ccccc1OC`, the inhibition is inactive: 8.47%.

In the case of `Clc1ccc(Cl)c(NC2=NCC(CBr)S2)c1` (configuration not stated), the inhibition was inactive: 9.71%.

As for `CN1CCCC(OC(=O)C(c2ccccc2)c2ccccc2)C1` (configuration not stated), the inhibition is inactive: -0.615%.

Regarding `CCN(N=Nc1nonc1N)c1nonc1N`, the inhibition is inactive: -6.34%.

For `Nc1cccc2ccc([As](=O)(O)O)cc12`, the inhibition was inactive: 13.5%.

With `O=C(O)c1ccccc1[As](=O)(O)O`, the inhibition is inactive: -2.24%.

As for `CC(=O)Nc1ccc([As](=O)(O)O)cc1`, the inhibition was inactive: -7.31%.

As to `CCCC1OP(N)(=O)OCC1CC` (configuration not stated), the inhibition was inactive: 1.39%.

Consider `O=P(Nc1nc2ccc(Cl)cc2s1)(c1ccccc1)c1ccccc1`, for which the inhibition was inactive: 11.6%.

As to `CCOP(=O)(Nc1ccccc1)OCC`, the inhibition was inactive: 5.18%.

Consider `Cc1cc(SC(NC(=O)c2ccc(F)cc2)C(Cl)(Cl)Cl)ncn1` (configuration not stated), for which the inhibition was inactive: -1.63%.

With `Cc1ccc(NP(=O)(Oc2ccccc2F)Oc2ccccc2F)nc1`, the inhibition was inactive: -0.296%.

Regarding `CN(C(=O)Cc1ccc(Cl)c(Cl)c1)[C@H]1CCCC[C@@H]1N1CCCC1`, the inhibition was inactive: -0.549%.

As to `COC(=O)c1cc2c(s1)N=C(c1ccccc1)N(C)P2(=O)N1CCOCC1` (configuration not stated), the inhibition was inactive: -0.484%.

As for `CC(=O)NC(SC(=S)N(CC(C)C)CC(C)C)C(Cl)(Cl)Cl` (configuration not stated), the inhibition was inactive: 4.1%.

Turning to `Cc1ccc(OP(=O)(Nc2ccccn2)Oc2ccc(C)cc2)cc1`, the inhibition is inactive: 18.2%.

For the compound `O=C(OC1CN2CCC1CC2)c1ccccc1` (configuration not stated), the inhibition was inactive: 5.46%.

In the case of `CCC(=O)N1C2C3N(C(=O)CC)C1C1N(C(=O)CC)C(C(N1C(=O)CC)N3C(=O)CC)N2C(=O)CC`, the inhibition was inactive: -10.2%.

`Cc1ccccc1OP(=O)(Nc1ccccn1)Oc1ccccc1C`: the inhibition was inactive: -8.95%.

On to `CC(NC(=O)COC(=O)C(O)(c1ccccc1)c1ccccc1)c1ccccc1` (configuration not stated), for which the inhibition was inactive: 1.39%.

Take `CN(C)C(=O)Oc1noc2ccccc12`: the inhibition is inactive: -6.62%.

In the case of `O=c1c2cc([N+](=O)[O-])ccc2[nH]c2c([N+](=O)[O-])cc([N+](=O)[O-])cc12`, the inhibition is active: 73.2%.

With `CCNC(=S)/N=C(\N)N[N+](=O)[O-]`, the inhibition was inactive: -0.144%.

On to `O=C(NC1CCS(=O)(=O)C1)NP(=S)(Oc1ccccc1)Oc1ccccc1` (configuration not stated), for which the inhibition is inactive: 4.29%.

Consider `c1ccc(-c2nn[nH]n2)c(-c2nn[nH]n2)c1`, for which the inhibition was inactive: -4.98%.

As to `Cc1ccc(NP(=O)(Oc2cccc(C)c2)Oc2cccc(C)c2)nc1`, the inhibition is inactive: 11.5%.

`O=P1(N(CCCl)CCCl)OCCC2CCCCN21` (configuration not stated): the inhibition was inactive: 12.1%.

In the case of `N#C/C(=C\c1ccc(N(CCBr)CCBr)cc1)C(N)=O`, the inhibition was inactive: 4.83%.

Take `CC(=O)c1ccc(N2CC2c2ccncc2)cc1` (configuration not stated): the inhibition was inactive: 16.5%.

With `COC(=O)C1(C)COP(=O)(NCc2ccccc2)OC1` (configuration not stated), the inhibition is inactive: -5.23%.

As to `Cc1ccccc1CN(C)C(=O)COC(=O)C(O)(c1ccccc1)c1ccccc1`, the inhibition was inactive: -10.2%.

`C[C@@H]1C=CCP(=O)(Oc2ccccc2)O1` (some centres not stated): the inhibition is inactive: 1.98%.

On to `C[C@H]1OP(=O)(Oc2ccccc2)C[C@@H]2O[C@@H]21` (some centres not stated), for which the inhibition was inactive: 0.633%.

As to `CC(=O)Nc1ccc([As](=O)(O)O)c(O)c1`, the inhibition is inactive: -2.12%.

As for `CC(=O)Nc1ccc(Oc2c([N+](=O)[O-])cc([N+](=O)[O-])cc2[N+](=O)[O-])cc1`, the inhibition was inactive: 2.09%.

Regarding `O=P1(Nc2nc3ccc(Cl)cc3s2)COc2ccccc2O1` (configuration not stated), the inhibition is inactive: -6.54%.

For the compound `CCOc1ccc(C2=NCC(CBr)S2)cc1` (configuration not stated), the inhibition was inactive: -3.49%.

On to `CCc1cc(O)c([N+](=O)[O-])c(C)c1[N+](=O)[O-]`, for which the inhibition was inactive: 1.51%.

As for `CC(C)(C)C(=O)NC(Sc1ccccc1)C(Cl)(Cl)Cl` (configuration not stated), the inhibition is inactive: -9.14%.

As for `CC(C)C(=O)NC(Sc1ccccc1)C(Cl)(Cl)Cl` (configuration not stated), the inhibition is inactive: 6.77%.

Consider `O=P(Nc1nccs1)(c1ccccc1)c1ccccc1`, for which the inhibition is inactive: -0.51%.

`c1nnnn1CCn1cnnn1`: the inhibition is inactive: 10%.

Take `O=[N+]([O-])c1ccc(O)c(/C=N/Nc2ccc([N+](=O)[O-])cc2[N+](=O)[O-])c1`: the inhibition is inactive: 36.8%.

`CC(=O)NC(SC(=S)N(C)C)C(Cl)(Cl)Cl` (configuration not stated): the inhibition is inactive: 36.1%.

With `O=[N+]([O-])c1ncn(CCn2cnc([N+](=O)[O-])n2)n1`, the inhibition is inactive: 9.33%.

In the case of `O=[As](O)(c1ccccc1)c1ccc(O)cc1`, the inhibition was inactive: -1.98%.

For `Nc1ccc([As](=O)(O)c2ccc([N+](=O)[O-])cc2)cc1`, the inhibition is inactive: -0.198%.

Regarding `C(Cc1nn[nH]n1)Cc1nn[nH]n1`, the inhibition is inactive: -1.29%.

As for `O=C(OC1CN2CCC1CC2)c1cccc(Cl)c1` (configuration not stated), the inhibition is inactive: -9.66%.

On to `COc1ccc(N)c([N+](=O)[O-])c1[N+](=O)[O-]`, for which the inhibition was inactive: -8.62%.

Regarding `O=P(Nc1ccccn1)(c1ccc(Br)cc1)c1ccc(Br)cc1`, the inhibition was inactive: -0.961%.

As for `CN(C)C1(CNC(=O)c2ccc(Cl)c(S(N)(=O)=O)c2)CCCCC1`, the inhibition was inactive: 6.89%.

Consider `O=P(Nc1nc2ccccc2s1)(c1ccccc1)c1ccccc1`, for which the inhibition is inactive: -7.98%.

Regarding `C[C@H]1OP(=O)(Oc2ccccc2)[C@H](O)[C@H](O)[C@H]1N=[N+]=[N-]` (some centres not stated), the inhibition was inactive: 5.3%.
